The text below walks through data of US10953037B2, “Chondroitin sulfate derivative and agent for treating bladder diseases” (priority 2015, dated 2021).

Values joined by “and” are separate entries in the source; they are usually repeats but may differ in a detail not shown here. Identical values can stand only once. Like-named read-outs stand apart in the source and are kept apart here.

For data set [1] the following is noted: rat, in vivo.
The conditions of data set [2]: for Drug release ratio: 5 mg/10 mL; for Release rate, comparison among the tested derivatives (in words): both pH 7.4 and pH 8.0, 36° C.; for Release Rate (%/day): over 1 week.
Data set [3] is described as follows: Test Example B3: body weight change (systemic adverse side effects). The following applies: rat, in vivo. Here is the method: Body weight changes were determined by measuring body weight four times, namely before surgery, after surgery and immediately before the induction with hydrochloric acid, immediately before administering the test substance (before agent administration), and immediately before measurement of intravesical pressure (cystometry), and are indicated as relative values based on a value of 100% for the body weight prior to surgery for each animal.
Furthermore, changes in body weight were measured under the same conditions as in Test Example B2.
Mean±standard error (number of animals per group: 5 to 8)

[4] abbreviates: borate buffer pH 8.0, 36° C., elapsed time 0 days.
The mark [5] stands for this setting: borate buffer pH 8.0, 36° C., elapsed time 1 day.
The mark [6] stands for this setting: borate buffer pH 8.0, 36° C., elapsed time 2 days.
Where [7] appears, read: borate buffer pH 8.0, 36° C., elapsed time 3 days.
Where [8] appears, read: borate buffer pH 8.0, 36° C., elapsed time 4 days.
Setting [9] is: borate buffer pH 8.0, 36° C., elapsed time 5 days.
[10] abbreviates: borate buffer pH 8.0, 36° C., elapsed time 6 days.
Setting [11] is: borate buffer pH 8.0, 36° C., elapsed time 7 days.
Where [12] appears, read: phosphate buffer pH 7.4, 36° C., elapsed time 0 days.
The mark [13] stands for this setting: phosphate buffer pH 7.4, 36° C., elapsed time 1 day.
Where [14] appears, read: phosphate buffer pH 7.4, 36° C., elapsed time 2 days.
The mark [15] stands for this setting: phosphate buffer pH 7.4, 36° C., elapsed time 3 days.
[16] abbreviates: phosphate buffer pH 7.4, 36° C., elapsed time 4 days.
[17] abbreviates: phosphate buffer pH 7.4, 36° C., elapsed time 5 days.
[18] abbreviates: phosphate buffer pH 7.4, 36° C., elapsed time 6 days.
Where [19] appears, read: phosphate buffer pH 7.4, 36° C., elapsed time 7 days.
[20] abbreviates: phosphate buffer pH 7.4, 36° C.

For “CS introduced with 21-Glycyl-Triamcinolone Acetonide [CS-Gly-TA]”, the “Body weight, Before Surgery (%)” value in data set [1] was 100.0 ± 0.0%. In addition, the “Body weight, Before agent administration (%)” value in data set [1] is 96.7 ± 1.2%. Further, in data set [1], the “Body weight, Before cystometry (%)” value came to 89.0 ± 1.7%. Further, the “Body weight, Before induction with hydrochloric acid (%)” value (from here on “Body weight, Before induction … (%)”) in data set [1] is 101.4 ± 0.7%. Moreover, the “Weight loss in comparison with prior to agent administration (in words)” value (“Weight loss in comparison with prior” below) in data set [1] is recorded as “prominent weight loss was only observed”. Moreover, the Wet thymus weight entry in data set [1] is “significant decreases in wet thymus weight were only observed”. The Drug release ratio was found to be 0.0% in data set [2] (setting [4]); 13.1% in data set [2] (setting [5]); 23.2% in data set [2] (setting [6]); 32.0% in data set [2] (setting [7]); 39.0% in data set [2] (setting [8]); 44.7% in data set [2] (setting [9]). Moreover, the Drug release ratio amounted to 49.2% in data set [2] (setting [10]); 53.9% in data set [2] (setting [11]); 0.0% in data set [2] (setting [12]); 5.3% in data set [2] (setting [13]); 10.1% in data set [2] (setting [14]); 15.0% in data set [2] (setting [15]). The Drug release ratio was found to be 19.4% in data set [2] (setting [16]), 23.8% in data set [2] (setting [17]), 28.0% in data set [2] (setting [18]) and 31.5% in data set [2] (setting [19]). In data set [2], the “Release rate, comparison among the tested derivatives (in words)” value (from here on “Release rate … (in words)”) was “release rate was the highest”. Besides, the “Release Rate (%/day)” value in data set [2] (setting [20]) was 4.5%/day.

“CS introduced with 21-Isoleucyl-Triamcinolone Acetonide [CS-Ile-TA]”: the “Body weight, Before Surgery (%)” value in data set [1] was determined as 100.0 ± 0.0%. Besides, in data set [1], the “Body weight, Before agent administration (%)” value came to 95.7 ± 1.6%. Further, the “Body weight, Before cystometry (%)” value in data set [1] was found to be 99.6 ± 1.2%. In addition, the “Body weight, Before induction … (%)” value in data set [1] is 98.9 ± 1.3%. Also, in data set [1], the “Weight loss in comparison with prior” value is reported as “weight loss was not observed”. Also, the Wet thymus weight result in data set [1] is given as “significant decreases in wet thymus weight were not observed”. The Drug release ratio in data set [2] (setting [4]) is reported as 0.0%; in data set [2] (setting [5]) it was 0.3%; in data set [2] (setting [6]), 0.5%; in data set [2] (setting [7]), 0.7%; in data set [2] (setting [8]), 1.1%; in data set [2] (setting [9]) it was 1.4%. Also, the Drug release ratio in data set [2] (setting [10]) came to 1.8%; in data set [2] (setting [11]), 2.1%; in data set [2] (setting [12]), 0.0%; in data set [2] (setting [13]), 0.1%; in data set [2] (setting [14]), 0.2%; in data set [2] (setting [15]), 0.3%. The Drug release ratio amounted to 0.4% in data set [2] (setting [16]), 0.6% in data set [2] (setting [17]), 0.8% in data set [2] (setting [18]) and 0.7% in data set [2] (setting [19]). Further, the “Release Rate (%/day)” value in data set [2] (borate buffer pH 8.0, 36° C.) worked out at 0.3%/day; in data set [2] (setting [20]) it was 0.1%/day. Further, the “Release rate … (in words)” value in data set [2] is “followed by CS-βAla-TA and CS-Ile-TA in that order”.

Take “CS introduced with 21-β-Alanyl-Betamethasone [CS-βAla-BTM]”: the Drug release ratio in data set [2] (setting [4]) is given as 0.6%; in data set [2] (setting [5]), 2.9%; in data set [2] (setting [6]), 4.8%; in data set [2] (setting [7]) it was 6.7%; in data set [2] (setting [8]), 9.4%; in data set [2] (setting [9]), 11.4%. In addition, the Drug release ratio is listed as 13.2% in data set [2] (setting [10]); 15.0% in data set [2] (setting [11]); 0.5% in data set [2] (setting [12]); 1.2% in data set [2] (setting [13]); 1.7% in data set [2] (setting [14]); 2.4% in data set [2] (setting [15]). For the same substance, the Drug release ratio in data set [2] (setting [16]) is 3.2%; in data set [2] (setting [17]) it was 3.8%; in data set [2] (setting [18]) it was 4.4%; in data set [2] (setting [19]), 5.0%. Moreover, the “Release Rate (%/day)” value in data set [2] (borate buffer pH 8.0, 36° C.) came out at 2.1%/day; in data set [2] (setting [20]) it was 0.7%/day. Moreover, the “Release rate … (in words)” value in data set [2] is recorded as “roughly equal”. In addition, in data set [3], the “Body weight, Before Surgery (%)” value stood at 100.0 ± 0.0%. Further, the “Body weight, Before agent administration (%)” value in data set [3] was 99.5 ± 1.3%. In addition, the “Body weight, Before cystometry (%)” value in data set [3] was 101.7 ± 1.3%. The “Body weight, Before induction … (%)” value in data set [3] is reported as 102.5 ± 1.6%.

Consider “CS introduced with 21-β-Alanyl-Prednisolone [CS-βAla-PRED]”, for which the Drug release ratio in data set [2] (setting [4]) was found to be 0.6%; in data set [2] (setting [5]) it was 7.0%; in data set [2] (setting [6]), 12.5%; in data set [2] (setting [7]), 17.8%; in data set [2] (setting [8]), 22.5%; in data set [2] (setting [9]), 27.3%. Also, the Drug release ratio was determined as 31.6% in data set [2] (setting [10]); 35.1% in data set [2] (setting [11]); 0.6% in data set [2] (setting [12]); 3.5% in data set [2] (setting [13]); 5.6% in data set [2] (setting [14]); 7.8% in data set [2] (setting [15]). The Drug release ratio is 10.0% in data set [2] (setting [16]), 12.0% in data set [2] (setting [17]), 14.3% in data set [2] (setting [18]) and 16.2% in data set [2] (setting [19]). Further, the “Release Rate (%/day)” value in data set [2] (borate buffer pH 8.0, 36° C.) worked out at 4.9%/day; in data set [2] (setting [20]), 2.2%/day. For the same substance, the “Release rate … (in words)” value in data set [2] is on record as “highest release rate”.

As for “CS introduced with 21-β-Alanyl-Triamcinolone Acetonide [CS-βAla-TA]”, in data set [1], the “Body weight, Before Surgery (%)” value was determined as 100.0 ± 0.0%. In data set [1], the “Body weight, Before agent administration (%)” value came to 96.9 ± 1.3%. For the same substance, the “Body weight, Before cystometry (%)” value in data set [1] came to 97.8 ± 1.5%. The “Body weight, Before induction … (%)” value in data set [1] turned out to be 100.8 ± 1.1%. In addition, in data set [1], the “Weight loss in comparison with prior” value is on record as “weight loss was not observed”. Besides, the Wet thymus weight result in data set [1] is “significant decreases in wet thymus weight were not observed”. For the same substance, the Drug release ratio is 1.3% and 0.0% in data set [2] (setting [4]); 2.7% and 1.0% in data set [2] (setting [5]); 4.2% and 2.4% in data set [2] (setting [6]); 5.7% and 3.7% in data set [2] (setting [7]); 7.4% and 5.0% in data set [2] (setting [8]); 8.6% and 6.4% in data set [2] (setting [9]). In addition, the Drug release ratio in data set [2] (setting [10]) was 10.0% and 7.8%; in data set [2] (setting [11]), 11.3% and 9.0%; in data set [2] (setting [12]), 1.3% and 0.0%; in data set [2] (setting [15]), 3.7% and 1.3%; in data set [2] (setting [16]), 4.5% and 1.8%; in data set [2] (setting [17]), 5.0% and 2.3%. In addition, the Drug release ratio is 5.9% and 2.8% in data set [2] (setting [18]); 6.7% and 3.4% in data set [2] (setting [19]). The “Release Rate (%/day)” value was 1.4%/day and 1.3%/day in data set [2] (borate buffer pH 8.0, 36° C.); 0.8%/day and 0.5%/day in data set [2] (setting [20]).
